We go through one molecule from PubChem BioAssay AID504905 (The Scripps Research Institute Molecular Screening Center, 2011).

By UniProt entry, the sequences of proteins in these tests, tags left out.
UniProt P47898, whole entry: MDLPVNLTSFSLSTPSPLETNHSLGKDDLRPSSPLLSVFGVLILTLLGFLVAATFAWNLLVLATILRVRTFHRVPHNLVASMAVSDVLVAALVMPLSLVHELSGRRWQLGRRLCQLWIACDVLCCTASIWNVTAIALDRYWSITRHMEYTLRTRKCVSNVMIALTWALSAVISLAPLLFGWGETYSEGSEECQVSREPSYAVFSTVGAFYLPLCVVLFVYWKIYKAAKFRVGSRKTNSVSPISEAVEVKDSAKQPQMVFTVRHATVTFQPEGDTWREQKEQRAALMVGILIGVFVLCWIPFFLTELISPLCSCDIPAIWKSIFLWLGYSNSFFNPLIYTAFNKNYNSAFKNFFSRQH

The list shows a part of the results, in another mix than the full data. Calls of active or inactive are those of the source. Rule as the data show it: active = activation above about 17%; inactive = the rest.

This assay has as its target 5-hydroxytryptamine receptor 5A (Homo sapiens) (UniProt P47898). Kind of assay: activation of human 5-HT5A receptor – cell-based, luminescence, counter-screen for OPRM1-OPRD1 heterodimer agonist project (AID 504905).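 Also: 0% = vehicle-treated cells and 100% = reference agonist response.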 To be noted: HTR5A agonist counterscreen, at 9.3 µM, active compounds read high. A general note: Counterscreens check selectivity or assay interference.

As to `CN(C)C1(CNC(=O)c2ccc(Cl)c(S(N)(=O)=O)c2)CCCCC1`, the activation is inactive: 5.09%.
